Consider one sequence from patent publication US8318899B2, “Lytic domain fusion constructs and methods of making and using same” (Board of Supervisors of Louisiana State University and …, priority 2008, dated 2012).

The subject of one data set is NIH:OVCAR-3 xenograft. Briefly: OVCAR-3 ovarian cancer xenograft. The data set is classed as in vivo. Conditions: 2 mg/kg; procedural, not related to treatment. The protocol: To determine the efficacy of Phor18-LHRH (338613) on ovarian cancer xenografts that resemble the human disease, single and multiple dose studies were conducted. The xenograft model of the OVCAR-3 human ovarian cancer cell line that present functional LHRH receptors was used in this study. OVCAR-3 represents a slow growing xenograft model and secretes the tumor marker (cancer antigen 125, or […]). It's secretion can be used as treatment response and is a measure of drug activity. […]
A group of 9 tumor bearing mice was sacrificed on day 33 and served as baseline group. […] Tumor volumes and bodyweights were recorded twice weekly during the study, as well as overall veterinarian examination of mice was conducted.
Primary tumors, liver, kidney, pancreas, heart, lung, and spleen were collected, fixed in formalin and prepared for histological evaluation. Tumor weights were measured at necropsy, part of the tumors were frozen at −80° C. for LH/CG and LHRH receptor assay determination.
As a biomarker for drug activity, CA125 was determined in serum, collected from each individual mouse at necropsy using a Enzyme Linked Immunoassay for quantitative determination of ovarian cancer antigen CA125 (Assay kit Genway, Biotech, Inc. San Diego, Calif., Catalog #40-052-115009, # BC-1013 according to the manufacturer).
LHRH receptor levels were assessed from formalin fixed tumors. […]

The next data set has as its system human red blood cells. Briefly: Acute hemolytic activity on human RBC. The format is cell-based. The settings on record: 0.5% human RBC, 2 h. The protocol:
Hemolytic activity was determined in 96 well plates using a serial dilution of peptides exposed to 0.5% human RBC. Controls were saline (no RBC death) or 0.1% Triton X 100 (100% RBC lysis). The peptide concentrations ranged from 0 to 100 μM. Incubations were conducted for 2 h.

The test system of another data set is MDA-MB435S xenograft. Briefly: MDA-MB435S xenograft, multiple dose regimen. The data set is classed as in vivo, Nu/Nu mice. The settings on record: 0.002 and 0.2 mg/kg. The protocol:
In order to determine the minimal effective dose necessary to reduce MDA-MB435S xenograft weights in a multiple dose regimen, Nu/Nu female mice, outbred strain, age 8 weeks (Charles River), were injected (s.c.) into the interscapular region with a MDA-MB435S (passage #253)/Matrigel suspension (2×10^6 cells/mouse) as previously described above. Phor18-LHRH (338613) (ID: 338613 lot# P080401) (0.002, and 0.2 mg/kg) were reconstituted in USP saline prior to dosing. The doses were given as a single bolus intravenous injection via lateral tail vein on days 15, 16, 17, 20, 21, 22, 23, 27, 28, 29, 30, 33, 34, 35, 36, 37, 38, 40, 41, 42 after tumor cell inoculation. Saline injections served as control groups.
Each treatment group consisted of 16 mice. During the entire study tumor volumes were recorded twice weekly. Final necropsy was conducted on day 45 after tumor cell injection. […] due to occlusion of the tail vein in most mice. At study endpoint body weight, tumor weights were determined and fixed in phosphate buffered 10% formalin.

Take “KFAKFAKKFAKFAKKFAKQHWSYGLRPG [Phor18-LHRH]”: in the data set with NIH:OVCAR-3 xenograft, the deaths on injection result is on record as “One mouse died during the first injection”. Besides, the “HA50 (hemolytic activity)” value in the data set on human red blood cells was found to be 297 µM. For the same sequence, the “effects on body weight or organ examination” value in the data set with MDA-MB435S xenograft is “without any visible effects on body weight or organ examination”.
